The test system of this data set is O=C1CCCCC1. The experiment in a line: purified protein. As to conditions: apparent, 0.3 mM NADPH, 50 mM sodium phosphate pH 7.7, 25 °C.

In general, Km refers to the concentration of substrate that gives half-maximal velocity.

On to “Ac CHMO (cyclohexanone monooxygenase) (Acinetobacter johnsonii; A245G/A288V)”, for which the Michaelis constant (Km) was 5.64 ± 0.48 µM.

These data come from PMC10453637, “In Vivo, High-Throughput Selection of Thermostable Cyclohexanone Monooxygenase (CHMO)” (Catalysts (Basel, Switzerland), 2020).
